# Read-outs that look alike come from different tables or passages of the source.
# Molecular target: MT1-MMP Hemopexin domain (PEX) (Homo sapiens, UniProt P50281)
# Test: MT1-MMP fluorescence polarisation competition binding assay
# Details: read-out: Kd (nM ± 95% CI)
# Description: Due to their high affinities to the MT1-MMP Hemopexin domain (PEX), the fluoresceinated derivatives of 17-69-07 and 17-69-12 (denoted as 17-69-07-N040, 17-69-07-N041 and 17-69-12-N004) can be used for competition experiments (using FP for detection)
# Here, a pre-formed complex of PEX with the fluorescent PEX-binding tracer is titrated with free, non-fluoresceinated bicyclic peptide. Since all 17-69-based peptides are expected to bind at the same site, the titrant will displace the fluorescent tracer from PEX. Dissociation of the complex can be measured quantitatively, and the Kd of the competitor (titrant) to the target protein determined. The advantage of the competition method is that the affinities of non-fluoresceinated bicyclic peptides can be determined accurately and rapidly.
# Concentrations of tracer are usually at the Kd or below (here, 1 nM), and the binding protein (here, hemopexin of MT1-MMP) is at a 15-fold excess such that >90% of the tracer is bound. Subsequently, the non-fluorescent competitor bicyclic peptide (usually just the bicycle core sequence) is titrated, such that it displaces the fluorescent tracer from the target protein. The displacement of the tracer is measured and associated with a drop in fluorescence polarisation. The drop in fluorescence polarisation is proportional to the fraction of target protein bound with the non-fluorescent titrant, and thus is a measure of the affinity of titrant to target protein.
# In certain experiments, collagen binding tracers (i.e. 17-88-N006 and 17-88-226-N002) were used in an analogous manner to the hemopexin binding tracers.
# The raw data is fit to the analytical solution of the cubic equation that describes the equilibria between fluorescent tracer, titrant, and binding protein. The fit requires the value of the affinity of fluorescent tracer to the target protein, which can be determined separately by direct binding FP experiments (see previous section). The curve fitting was performed using Sigmaplot 12.0 and used an adapted version of the equation described by Zhi-Xin Wang (FEBS Letters 360 (1995) 111-114).
# [1] = tracer 17-88-226-N002 (collagen binding tracer)
# [2] = tracer 17-69-07-N041 (hemopexin binding tracer)
# [3] = tracer 17-69-07-N040 (hemopexin binding tracer)
# [4] = tracer 17-88-N006 (collagen binding tracer)
# [5] = tracer 17-69-12-N004 (hemopexin binding tracer)
Substance,Kd [3] [nM],Kd [4] [nM],further results
(B-Ala)-Sar10-ALPP-(SEQ ID NO: 17),–,–,Kd [1]: 39.5 ± 16.4 nM
(B-Ala)-Sar10-ALPP-(SEQ ID NO: 18),–,–,Kd [1]: 190 ± 32.2 nM
(B-Ala)-Sar10-ALPP-(SEQ ID NO: 19),–,–,Kd [1]: 89.5 ± 10.1 nM
A-(SEQ ID NO: 2)-A [17-111-01],–,–,Kd [2]: 1800 nM
A-(SEQ ID NO: 3)-A [17-111-02],–,–,Kd [2]: 2300 nM
A-(SEQ ID NO: 4)-A [17-116-01],352,–,–
A-(SEQ ID NO: 8)-A [17-120-03],–,604 ± 35,–
A-(SEQ ID NO: 12)-A [17-120-08],–,258 ± 102,–
A-(SEQ ID NO: 79)-A [17-121-00],678,–,–
A-(SEQ ID NO: 80)-A [17-127-01],2200,–,–
A-(SEQ ID NO: 81)-A [17-129-00],446,–,–
A-(SEQ ID NO: 83)-A [17-129-02],877 ± 651,–,–
A-(SEQ ID NO: 84)-A [17-129-03],536 ± 126,–,–
A-(SEQ ID NO: 85)-A [17-129-04],595 ± 372,–,–
A-(SEQ ID NO: 86)-A [17-129-05],136 ± 22.3,–,–
A-(SEQ ID NO: 87)-A [17-129-06],566,–,–
A-(SEQ ID NO: 88)-A [17-129-07],582,–,–
A-(SEQ ID NO: 89)-A [17-129-08],516,–,–
A-(SEQ ID NO: 90)-A [17-129-09],1090,–,–
A-(SEQ ID NO: 91)-A [17-129-10],781,–,–
A-(SEQ ID NO: 92)-A [17-129-11],912,–,–
A-(SEQ ID NO: 95)-NVI [17-129-14-T02],318,–,–
A-(SEQ ID NO: 101)-TVL [17-129-20-T01],213,–,–
A-(SEQ ID NO: 102)-SWL [17-129-21-T01],111 ± 33.7,–,–

Substance,Kd [3] [nM],Kd [4] [nM],further results
A-(SEQ ID NO: 103)-LTE [17-129-22-T01],53.7,–,–
A-(SEQ ID NO: 104)-YSE [17-129-23-T01],54.8,–,–
A-(SEQ ID NO: 105)-A [17-126-01],–,–,Kd [2]: > 316 nM
A-(SEQ ID NO: 106)-A [17-126-02],–,–,Kd [2]: > 282 nM
A-(SEQ ID NO: 107)-A [17-126-03],–,–,Kd [2]: > 430 nM
A-(SEQ ID NO: 108)-A [17-126-06],675 ± 192,–,–
A-(SEQ ID NO: 109)-A [17-126-07],198 ± 85.3,–,–
A-(SEQ ID NO: 110)-A [17-126-08],711,–,–
A-(SEQ ID NO: 111)-A [17-126-09],165,–,–
A-(SEQ ID NO: 112)-A [17-126-10],737,–,–
A-(SEQ ID NO: 113)-A [17-126-18],147,–,–
A-(SEQ ID NO: 114)-A [17-126-19],199,–,–
A-(SEQ ID NO: 115)-A [17-126-20],246,–,–
A-(SEQ ID NO: 116)-A [17-126-21],131,–,–
A-(SEQ ID NO: 117)-A [17-126-22],295,–,–
A-(SEQ ID NO: 118)-A [17-126-23],409,–,–
A-(SEQ ID NO: 119)-A [17-126-24],200,–,–
A-(SEQ ID NO: 120)-A [17-126-25],> 139,–,–
A-(SEQ ID NO: 121)-A [17-126-26],1200,–,–
A-(SEQ ID NO: 122)-A [17-126-27],143,–,–
A-(SEQ ID NO: 123)-A [17-126-28],250,–,–
A-(SEQ ID NO: 132)-PDVA [17-126-39-T01],187,–,–
A-(SEQ ID NO: 133)-HQAA [17-126-40-T01],310,–,–
A-(SEQ ID NO: 134)-RENA [17-126-41-T01],202,–,–

Substance,Kd [3] [nM],Kd [4] [nM],further results
A-(SEQ ID NO: 135)-A [17-126-11],971,–,–
A-(SEQ ID NO: 136)-A [17-126-12],2900,–,–
A-(SEQ ID NO: 137)-A [17-122-02],> 929,–,–
A-(SEQ ID NO: 138)-A [17-122-03],> 378,–,–
A-(SEQ ID NO: 139)-A [17-122-04],> 2100,–,–
AALP-(SEQ ID NO: 22)-A [17-120-12-T01],–,183,–
AAPP-(SEQ ID NO: 37)-A [17-120-27-T01],–,394,–
ADRP-(SEQ ID NO: 24)-A [17-120-14-T01],–,148,–
ADY-(SEQ ID NO: 99)-A [17-129-18-T04],172 ± 53.9,–,–
AEPA-(SEQ ID NO: 35)-A [17-120-25-T01],–,194 ± 162,–
ALDP-(SEQ ID NO: 23)-A [17-120-13-T01],–,189 ± 123,–
ALPP-(SEQ ID NO: 27)-A [17-120-17-T01],–,157,–
ANE-(SEQ ID NO: 129)-A [17-126-36-T01],149,–,–
APAP-(SEQ ID NO: 13)-A [17-120-09-T12],–,62.2,–
APAP-(SEQ ID NO: 33)-A [17-120-23-T01],–,127 ± 7.84,–
APDP-(SEQ ID NO: 13)-A [17-120-09-T10],–,38.5,–
APHP-(SEQ ID NO: 13)-A [17-120-09-T13],–,69.3,–
APLP-(SEQ ID NO: 13)-A [17-120-09-T11],–,44.2,–
APMP-(SEQ ID NO: 20)-A [17-120-10-T01],–,132 ± 103,–
APNP-(SEQ ID NO: 13)-A [17-120-09-T09],–,77.2,–
APPP-(SEQ ID NO: 13)-A [17-120-09-T01],–,53.8 ± 13.3,–
APPP-(SEQ ID NO: 31)-A [17-120-21-T01],–,113,–
APPP-(SEQ ID NO: 38)-A [17-120-28-T01],–,192 ± 4.9,–
APPP-(SEQ ID NO: 41)-A [17-120-31-T03],–,41.5 ± 5.32,–

Substance,Kd [3] [nM],Kd [4] [nM],further results
APPP-(SEQ ID NO: 44)-A [17-120-34-T01],–,59.9 ± 8.58,–
APPP-(SEQ ID NO: 45)-A [17-120-35-T01],–,23.3 ± 9.48,–
APSP-(SEQ ID NO: 21)-A [17-120-11-T01],–,612 ± 760,–
APSP-(SEQ ID NO: 32)-A [17-120-22-T01],–,62.4 ± 30.5,–
ARHP-(SEQ ID NO: 26)-A [17-120-16-T01],–,74.4 ± 17.6,–
ASPP-(SEQ ID NO: 36)-A [17-120-26-T01],–,598,–
ATQP-(SEQ ID NO: 25)-A [17-120-15-T01],–,178,–
AVEP-(SEQ ID NO: 34)-A [17-120-24-T01],–,126,–
AVPP-(SEQ ID NO: 39)-A [17-120-29-T01],–,162 ± 68.6,–
AVW-(SEQ ID NO: 130)-A [17-126-37-T01],155,–,–
Ac-(B-Ala)-Sar10-ALPP-(SEQ ID NO: 17),–,–,Kd [1]: 43.9 ± 15.5 nM
Ac-(SEQ ID NO: 104)-YSE [Ac-(17-129-23-T01)],–,–,Kd [5]: 8.9 nM
Ac-A-(SEQ ID NO: 120)-A [Ac-(17-126-25)],–,–,Kd [5]: 60.5 nM
D-(SEQ ID NO: 97)-RA [17-129-16-T01],263,–,–
DLH-(SEQ ID NO: 128)-A [17-126-35-T01],263,–,–
DNM-(SEQ ID NO: 99)-A [17-129-18-T02],334,–,–
ENITT-(SEQ ID NO: 82)-A [17-129-01-T05],324,–,–
EPPP-(SEQ ID NO: 13)-A [17-120-09-T07],–,48.1,–
GPH-(SEQ ID NO: 125)-A [17-126-31-T01],295,–,–
GPPP-(SEQ ID NO: 13)-A [17-120-09-T04],–,34.1 ± 10.2,–
HLPP-(SEQ ID NO: 41)-A [17-120-31-T01],–,50.2,–
HPPP-(SEQ ID NO: 13)-A [17-120-09-T08],–,37.5,–
HSP-(SEQ ID NO: 124)-A [17-126-30-T01],239,–,–
IHS-(SEQ ID NO: 126)-A [17-126-32-T01],390,–,–
